# In patent US6121489A (priority 1997, dated 2000):
# Sequences of proteins named here, by UniProt entry; tags and fusion partners are left off.
# UniProt P33535, whole entry: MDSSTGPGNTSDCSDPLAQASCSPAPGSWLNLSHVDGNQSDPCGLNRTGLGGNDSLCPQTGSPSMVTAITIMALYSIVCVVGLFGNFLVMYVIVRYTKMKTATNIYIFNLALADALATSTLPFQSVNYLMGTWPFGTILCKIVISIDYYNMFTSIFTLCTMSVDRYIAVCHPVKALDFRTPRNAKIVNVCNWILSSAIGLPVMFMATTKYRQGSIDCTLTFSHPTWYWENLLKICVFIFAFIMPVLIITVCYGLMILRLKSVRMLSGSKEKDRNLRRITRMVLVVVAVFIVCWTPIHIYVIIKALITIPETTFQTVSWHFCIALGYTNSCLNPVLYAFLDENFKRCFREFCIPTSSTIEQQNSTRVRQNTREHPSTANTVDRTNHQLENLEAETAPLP
# Target: T1, Mu Receptor (Rattus norvegicus, UniProt P33535)
# T1 construct: radioreceptor assay using rat brain homogenates and [^3 H]-DAMGO as radioligand; tissue Harlan Bioproducts for Science (Indianapolis, Ind.); host or cells: rat brain without cerebellum, crude membrane homogenate
# Assay type: binding
row,Structure (SMILES),IC50 [nM]
1,CCN(C(=O)[C@@H](N)Cc1ccccc1)[C@@H](Cc1ccc(O)cc1)C(=O)NCc1ccc2ccccc2c1 [S-(4-hydroxy)benzyl (2-BrZ)],31
2,CCN(C(=O)[C@@H](N)Cc1ccccc1)[C@@H](Cc1ccc2ccccc2c1)C(=O)NCc1ccc2ccccc2c1 [S-(Napth-2-yl)methyl],1210
3,CCN(C(=O)[C@@H](N)Cc1ccccc1)[C@@H](CC(C)C)C(=O)NCc1ccc2ccccc2c1 [S-(2-methyl)prop-1-yl],1490
4,CCN(C(=O)[C@@H](N)Cc1ccccc1)[C@@H](Cc1cn(Cc2ccc3ccccc3c2)c2ccccc12)C(=O)NCc1ccc2ccccc2c1 [S-(N-(napth-2-ylmethyl)indol-3-ylmethyl)],494
5,CCN(C(=O)[C@@H](N)Cc1ccccc1)[C@@H](CCC(=O)O)C(=O)NCc1ccc2ccccc2c1 [S-(2-carboxy)eth-1-yl],476
6,CCN(C(=O)[C@@H](N)Cc1ccccc1)[C@@H](CCCCNCc1ccc2ccccc2c1)C(=O)NCc1ccc2ccccc2c1,237
7,CCN(C(=O)[C@@H](N)Cc1ccccc1)[C@H](Cc1ccc(O)cc1)C(=O)NCc1ccc2ccccc2c1 [R-4-(hydroxy)benzyl],542
8,CCN(C(=O)[C@@H](N)Cc1ccccc1)[C@@H](CC(=O)N(Cc1ccc2ccccc2c1)Cc1ccc2ccccc2c1)C(=O)NCc1ccc2ccccc2c1,1110
9,CCN(C(=O)[C@@H](N)Cc1ccccc1)[C@H](Cc1c[nH]c2ccccc12)C(=O)NCc1ccc2ccccc2c1 [R-(indol-3-yl)methyl (Boc)],1590
10,"CCN(C(=O)[C@@H](N)Cc1ccccc1)[C@@H](CCC(=O)N(Cc1ccc2ccccc2c1)Cc1ccc2ccccc2c1)C(=O)NCc1ccc2ccccc2c1 [S-(N,N-di(napth-2-ylmethyl)amidoethyl]",585
11,CCN(C(=O)[C@@H](N)Cc1ccccc1)[C@H](CCCCNCc1ccc2ccccc2c1)C(=O)NCc1ccc2ccccc2c1,476
